This note sets out measurements from patent US9040071B2, “Pary-xylene based microfilm elution devices” (Cute Lovable Teddy Bear, LLC., priority 2009, dated 2015).

A short description of the data set: Interferonα2b elution from parylene devices, ELISA (Example 7). Conditions: DMEM, 37 degrees Celsius. The format is physicochemical. The source says: Interferonα2b is a large protein.
On the technique in general: An ELISA detects its analyte on a solid surface through an enzyme-linked reagent.

Bounds are passed on as bounds.

As for “IFN-α2b: Interferonα2b, an approximately 20 kilodalton protein”, for the setting “0.1 gram unmodified device”, the “time at which release tapered off” value is on record as “approximately 10 days”. Besides, the duration of release (0.2 gram oxidized device) was at least 28 days. In addition, the initial burst release entry (unmodified 0.1 gram vs 0.2 gram oxidized laminate layer) was “comparable”.
